ChEMBL document CHEMBL3425437, “Selective Inhibitors of Cyclin G Associated Kinase (GAK) as Anti-Hepatitis C Agents” (J Med Chem, 2015)

Assay: Cytotoxicity against human Huh7.5 cells infected with Hepatitis C virus J6/JFH assessed as effect on cell viability after 72 hrs by Alamarblue assay
Assay type: cell-based
Details: huh-7, 72 h

Q: Which CC50 does the source give for `COc1cc(-c2cnc3c(N4CCOCC4)snc3c2)ccc1N` here?
A: 8.92 µM
